The nature of this series: pharmacokinetic and pharmacodynamic behaviour (plasma level, tmax, AUC). Particulars: 150 mg S(+)-ibuprofen.

With “S(+)-ibuprofen-L-(+)-lactic acid complex”, the effect onset result is on record as “Rapid effect onset”.

(Values after US5254728A, “Complexes containing S(+)-phenyl alkanoic acids and α-hydroxyalkanoic” (priority 1990, dated 1993).)
